Test results from ChEMBL document CHEMBL1134890, “Preparation of oxime dual NK(1)/NK(2) antagonists with reduced NK(3) affinity” (Bioorg Med Chem Lett, 2002).

Chains of the proteins cited; added tags and fusions are not shown.
UniProt P29371, whole entry: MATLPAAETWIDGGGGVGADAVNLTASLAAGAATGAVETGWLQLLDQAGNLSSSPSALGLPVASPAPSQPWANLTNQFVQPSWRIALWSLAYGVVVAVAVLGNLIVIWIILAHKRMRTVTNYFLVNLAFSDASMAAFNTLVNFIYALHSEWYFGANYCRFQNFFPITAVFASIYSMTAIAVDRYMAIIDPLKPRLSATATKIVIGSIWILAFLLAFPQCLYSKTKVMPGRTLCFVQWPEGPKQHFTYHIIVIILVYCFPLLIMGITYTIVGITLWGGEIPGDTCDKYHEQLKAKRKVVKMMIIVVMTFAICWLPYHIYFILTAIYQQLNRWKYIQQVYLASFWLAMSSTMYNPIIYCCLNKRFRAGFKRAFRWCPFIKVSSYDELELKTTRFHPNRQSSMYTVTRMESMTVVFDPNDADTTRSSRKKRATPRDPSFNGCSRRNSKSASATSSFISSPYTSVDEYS
UniProt P25103, whole entry: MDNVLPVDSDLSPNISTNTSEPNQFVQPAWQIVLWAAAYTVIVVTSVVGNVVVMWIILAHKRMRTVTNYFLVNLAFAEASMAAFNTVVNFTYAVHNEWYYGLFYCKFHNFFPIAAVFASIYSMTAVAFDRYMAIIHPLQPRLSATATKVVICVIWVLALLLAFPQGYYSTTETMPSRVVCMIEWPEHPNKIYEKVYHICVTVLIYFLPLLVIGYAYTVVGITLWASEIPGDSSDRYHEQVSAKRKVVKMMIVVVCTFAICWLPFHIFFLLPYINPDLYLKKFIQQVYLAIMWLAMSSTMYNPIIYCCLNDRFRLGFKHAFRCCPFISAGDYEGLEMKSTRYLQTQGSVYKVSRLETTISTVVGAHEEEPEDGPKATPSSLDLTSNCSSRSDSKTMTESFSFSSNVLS

How the values were obtained:
[1] = target: Neuromedin-K receptor (Homo sapiens, UniProt P29371); assay: Binding affinity against recombinant human tachykinin receptor 3 in CHO cells using [125I][MePhe]-NKB as radioligand; type: cell-based
[2] = target: Substance-P receptor (Homo sapiens, UniProt P25103); assay: Binding affinity against recombinant human tachykinin receptor 1 in CHO cells using [3H]-Sar SP as radioligand; type: cell-based

Ki [1]: 0.5 nM
Ki [2]: 0.5 nM
Structure (SMILES): CO/N=C(\CN(C)C(=O)c1cc(Cl)cc(Cl)c1)[C@H](CCN1CCC(N2CCCN(CC(C)(C)O)C2=O)CC1)c1ccc(Cl)c(Cl)c1
